Experiments:
[1] = Organ distribution of radiolabeled (125I) HSA-cyclic peptide conjugates after intravenous administration; type: in vivo, rat; settings: normal rats and rats with liver fibrosis (3 weeks after bile duct ligation); 10 minutes after i.v. 125I protein; FIG. 1 and 2
Description: FIG. 1: Organ distribution of human serum albumin (HSA) conjugated with 10 to 12 cyclic oligopeptides recognizing the PDGF-receptor in normal rats [figure A] and in rats with liver fibrosis induced by bile duct ligation (3 weeks after the operation) [fig.B]. Figure C represents the organ distribution of unmodified HSA. Organs were removed 10 minutes after intravenous administration of radiolabeled (^125I) protein and analyzed using a gamma-counter. The results are expressed as the mean±SD (n=3 per group).
FIG. 2: Organ distribution of human serum albumin (HSA) conjugated with 10 to 12 cyclic oligopeptides recognizing the collagen type VI-receptor in normal rats [figure A] and in rats with liver fibrosis induced by bile duct ligation (3 weeks after the operation) [fig. B]. Organs were removed 10 minutes after intravenous administration of radiolabeled (^125I) protein and analyzed using a gamma-counter. The results are expressed as the mean±SD (n=3 per group).

PDGF-receptor = assay: In vitro displacement of radiolabeled PDGF-BB from its receptor upon 3T3-fibroblasts; type: binding; settings: FIG. 4
Excerpt: FIG. 4: In vitro displacement of radiolabeled PDGF-BB from its receptor upon 3T3-fibroblasts by HSA-PDGF receptor-binding peptide conjugates (pPB-HSA, closed blocks), HSA (open blocks) or uncoupled PDGF-receptor binding peptides (pPB, open circles).

human liver slices = assay: Binding and uptake of radiolabeled neo-glycoproteins in human liver slices; settings: 125I-labeled; slices from patients with normal liver function and cirrhotic patients; within one hour after co-incubation
[2] = rat, in vivo, iv
HSC = HSC proliferation in rats with liver fibrosis induced by bile duct ligation; type: in vivo, rat; settings: bile duct ligated rats, conjugate given 1, 3 and 5 days after ligation, read at day 7; compared to no treatment or PDTC alone
Description: Pyrrolidine-dithiocarbamate (PDTC, which is an inhibitor of the transcription factor NF-kappaB) was attached to M6P28-HSA by coupling the carboxylic groups of PDTC to lysine groups of HSA according to standard procedures. This compound was administered to rats with liverfibrosis induced by bile duct ligation.

[3] = test system: non-parenchymal cells of the liver; assay: Histochemical examination of liver and bone; double staining with anti-HSA and cell marker antibodies after i.v. HSA-peptide conjugate; type: in vivo, rat; settings: 10 mg/kg b.w. i.v.
Description: (§1) Normal rats and rats with liver fibrosis (3 weeks after bile duct ligation) received an intravenous injection of 10 mg/kg b.w. PDGF receptor-binding peptides conjugated with HSA. Based upon the results of the organ distribution studies with radiolabeled conjugates (FIG. 1), rats were sacrificed after ten minutes and samples of the liver and bone (from ribs, front paw, rear paw and the back) were removed for histochemical examination. […] Upon cryostat sections of these livers double stainings were performed with anti-HSA antibodies and antibodies against Kupffer cells (ED1), endothelial cells (RECA-1), myofibroblasts (anti-actin antibodies) or hepatic stellate cells (desmin and GFAP antibodies). Subsequently, the number of double positive cells (HSA+ and cell marker+) were counted and related to the total number of HSA positive cells in the same area.
as §1, with “b.w. collagen VI” for “b.w. PDGF”, “(FIG. 2),” for “(FIG. 1),”
FIG. 3: Intrahepatic distribution of HSA modified with 10-12 collagen type VI-receptor binding peptides in fibrotic rats (3 weeks after bile duct ligation). […] A]. […] B].

[4] = rats, sacrificed after ten minutes, liver cryostat sections

HSA: unmodified human serum albumin [reference compound]
organ distribution [1]: remains in the blood | displacement of radiolabeled PDGF-BB from its receptor (PDGF-receptor): not by native HSA | intrahepatic accumulation in human liver slices (human liver slices): not taken up

M6P28-HSA: neoglycoprotein: mannose 6-phosphate covalently coupled to human serum albumin, x=28
liver accumulation [2]: 59±9 % of the dose

PDTC-M6P28-HSA: Pyrrolidine-dithiocarbamate (PDTC) attached to M6P28-HSA via carboxylic groups of PDTC and lysine groups of HSA
proliferation of HSC in the parenchymal area (HSC): less proliferation of HSC

pPB-HSA: HSA modified with PDGF receptor-recognising cyclic peptides, 10 to 12 per HSA
staining in tissue samples (histochemical) ([3]; normal and fibrotic rats, ten minutes): abundant staining | accumulation in bone samples (histochemical) ([3]; normal and fibrotic rats, ten minutes, ribs, front paw, rear paw, back): No accumulation | % EC (relative accumulation; HSA-positive cells double-positive for EC marker HIS 52) [3, 4]: 16 ± 6% | % HSC (relative accumulation; HSA-positive cells double-positive for HSC marker desmine) [3, 4]: 72 ± 18% | % KC (relative accumulation; HSA-positive cells double-positive for KC marker ED2) [3, 4]: 11 ± 6% | organ distribution [1]: accumulation of modified HSA in livers of normal and diseased rats | displacement of radiolabeled PDGF-BB from its receptor (PDGF-receptor): strong inhibition of binding of native PDGF to fibroblasts

Reference: patent US7348313B2, “Method for targeting cells involved in sclerotic and/or fibrotic diseases” (Stichting Voor de Technische Wetenschappen, priority 1998, dated 2008)
